Literature values, collected in US10016389B2, “Method of making liposomes, liposome compositions made by the methods, and methods of using the same” (LivOn Laboratories, priority 2011, dated 2018).

Details: humans

Substance: R-(+)-lipoic acid [R-LA]
- oral dose absorbed: 30-40%
